Test results published in patent publication US20100137391A1, “Histamine H3 Agonist for use as Therapeutic Agent for a Lipid/Glucose Metabolic Disorder” (priority 2005, published 2010).

System: wild type mice
Settings: Imetit twice a day; FIGS. 5 and 7
Source text: Histamine H3 receptor knockout mice (hereinafter referred to as “H3RKO mice”) were produced by the method of Takahashi et al. (J. Clin. Invest, Vol. 110, p. 1791, 2002). The obtained knockout mice were subjected to back crossing with C57BL/6J over 5 generations. Six- to nine-month-old male litters were used in an acute drug administration test. On the other hand, 18- to 20-month-old mice whose parents were H3RKO mice or wild type mice (N5 of C57BL/6J) were used in a chronic drug administration test.
All mice were individually bred at 25° C., and light and dark were controlled every 12 hours. During breeding, water and feed were freely given to the mice. […]
Mice were divided into groups, depending on mean body weight and the amount of daily food intake before administration of the compound. The body weight and the amount of food intake were measured every day.
In the test using Thioperamide, mice were divided into 4 groups: a group in which a solvent was administered to C57BL/6J DiO mice at 9:00; a group in which 10 mpk Thioperamide was administered thereto at 9:00; a group in which a solvent was administered to C57BL/6J DiO mice at 17:00; and a group in which 10 mpk Thioperamide was administered thereto at 17:00. […] Thereafter, blood was collected from the orbit of each mouse, and the glucose and insulin levels were measured. […]

N=C(N)SCCc1c[nH]cn1 [Imetit, carbamimidothioic acid 2-(1H-imidazol-4-yl)ethyl ester]
body weight of fat mice: significantly decreased
